Experimental findings from PubChem BioAssay AID709 (SRMLSC, 2007) are described below.

The entries are a selection whose mix differs from that of the whole data set. Some results for these compounds are left out of this collection, so the calls shown say nothing about other tests. Activity calls are given as the source filed them.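 Rule for the calls: active = at 10 µM, mean starting fluorescence two-fold or more over control wells; inactive = the rest.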

The assay is described as follows: intrinsic fluorescence of library compounds, ex339/em460 – biochemical, MLSMR library, data from DPM-DC assay, artefact control, profiling panel (AID 709).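 Note: signal is the first read of a kinetic run.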 As to conditions: compound autofluorescence, ex339/em460 nm, NADH buffer; at 10 µM; hits give high values; 1 = no-compound wells, NADH background.
Turning to `O=C(OC1CN2CCC1CC2)C(CO)(c1ccccc1)c1ccccc1` (configuration not stated), the fluorescence fold increase is inactive: 1.01.

For the compound `CN(C)c1cccc(C(=O)NCC2(N(C)C)CCCCC2)c1`, the fluorescence fold increase was inactive: 1.88.
